Laboratory results from publication PMC3401278 (ACS Chemical Biology, 2012).

T1: E. coli His6-LpxD (UDP-3-O-(R-3-hydroxyacyl)glucosamine N-acyltransferase) (E. coli, UniProt P21645 1-341)
T1 sequence (looked up): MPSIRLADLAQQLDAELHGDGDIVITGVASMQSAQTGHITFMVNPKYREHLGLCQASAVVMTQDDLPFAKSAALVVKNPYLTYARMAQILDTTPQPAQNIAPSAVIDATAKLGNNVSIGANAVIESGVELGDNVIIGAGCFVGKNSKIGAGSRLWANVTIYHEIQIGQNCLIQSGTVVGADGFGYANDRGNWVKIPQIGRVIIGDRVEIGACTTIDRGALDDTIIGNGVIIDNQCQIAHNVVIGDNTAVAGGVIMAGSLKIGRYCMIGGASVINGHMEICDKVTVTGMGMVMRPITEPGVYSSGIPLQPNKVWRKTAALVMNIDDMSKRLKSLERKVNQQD


Key:
E. coli His6-LpxD = E. coli His6-LpxD (Escherichia coli, UniProt P21645); conditions: read-out: LpxD Kd, competition binding; pH 8
[1] = biological target: T1, E. coli His6-LpxD …; assay: fluorescence polarisation

Row | Molecule | Kd (E. coli His6-LpxD) | Kd [1]
1 | R-3-hydroxymyristoyl-ACP | 8.8 ± 0.7 µM | 
2 | R-3-hydroxymyristoyl-ACP (acyl carrier protein) (natural protein, UniProt P0A6A8 1-78, looked up, R-3-hydroxymyristoyl group on ACP (acyl-ACP)) MSTIEERVKKIIGEQLGVKQEEVTNNASFVEDLGADSLDTVELVMALEEEFDTEIPDEEAEKITTVQAAIDYINGHQA |  | 8.8 ± 0.7 µM
